# IL2 activator: activators of IL-2; activation, % (series mostly up to about 46 µM); AID 652025; IL-2 activation reporter assay, cell-based qHTS; stimulated with anti-CD3/CD4/CD28 beads; in transgenic mouse T cells; 360,000 tested, 0.065% active; in the data active means activation above about 50%; inconclusive means mostly about 30% to 49%; further: 0% is about no effect
#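 Unstimulated transgenic mouse T cells, 750 per well, received compound and, after 60 minutes, anti-CD3/anti-CD4 bead plus anti-CD28 stimulation. EGFP and DsRed were quantified after 18 hours.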
# uPA surface inh: blocks generation of uPA at the cell surface; cell surface uPA generation assay, qHTS; 330,000 tested, 0.31% active; Potency, µM (doses to about 38.3 µM), without a hit: at the highest dose activity change, negative = inhibition, most hits filed as inhibitors; AID 540303; active means well fitted inhibition curve with a large enough effect; inconclusive means small, poorly fitted or top-dose-only effect; inactive means no such curve, though single readings can be large or run the other way; tested in mouse RAW 264.7 cells; further: potency means the concentration at half of the fitted maximal effect; on the % scale 0 is the no-effect control and ±100 the full control effect; nearly all actives have a fitted effect of over 55% in size
# miR-21 FLuc: miR-21 reporter, rising signal | AID 2288 | HeLa miR-21 FLuc reporter, luciferase, 48 h | 340,000 tested, under 10 active | Potency, µM (titrated, usually from 38.3 µM), for the others: at the top dose reporter change, positive = more light; active = well fitted rising curve with a large enough effect; inconclusive = small, poorly fitted or top-dose-only effect; inactive = no such curve, though single readings can be large or run the other way;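 also: % of control where 0% means no effect; miR-21 action dims this reporter so a rising signal means less miR-21 action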
#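 Luminescence from a firefly luciferase reporter carrying a miR-21 binding site downstream, stably expressed under a CMV promoter in HeLa cells that make miR-21 endogenously, reports miRNA modulation after 48 h compound exposure up to approximately 40uM final.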
# p53 reactivation: re-activators of mutant p53. H1299 p53-A138V BP100-luciferase reporter, luminescence, 24 h. Potency, µM (top dose mostly 92.2 µM), without a hit: top-dose activity change, positive = activation, actives largely listed as activators. 320,000 tested, 0.063% active. AID 504706; further: potency means the concentration at half of the fitted maximal effect; % of control where 0% means no effect; nearly all actives have a fitted effect of over 45% in size
#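 p53-null H1299 cells stably carrying temperature-sensitive p53-A138V and a BP100-luciferase reporter were pinned with compounds (4-point, 1:5 series) and held 24 hrs at 37 deg C. Luminescence was read 10 min after detection reagent.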
# Epigenetic derep: derepresses silenced GFP reporter in murine cells; murine LDR cells, GFP reporter derepression, 30 h; Potency, µM (series often up to 53.9 µM), for the others: at the top dose GFP activation, actives largely listed as activators; 280,000 tested, 0.2% active; AID 1865; further: potency means the concentration at half of the fitted maximal effect; % of control where 0% means no effect; nearly all actives have a fitted effect of over 60% in size
#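 Derepression of a silenced CMV-GFP reporter in murine LDR cells is scored by enumerating GFP-positive cells with a laser-scanning microplate cytometer after 30 hours of treatment at 37 C.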
# PINK1 expr mod: changes PINK1 expression | PINK1 immunofluorescence, high-content cytometry, 24 h | Potency, µM (top dose mostly 76.6 µM), for inactives: top-dose activation (PINK1 increase), actives largely listed as activators | 410,000 tested, 0.2% active | AID 624263; active means well fitted activation curve with a large enough effect; inconclusive means small, poorly fitted or top-dose-only effect; cell line not stated here; further: potency means the concentration at half of the fitted maximal effect; % of control where 0% means no effect; nearly all actives have a fitted effect of over 65% in size
#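 A stable cell line was treated with compounds at 5 concentrations for 24 hours, with CCCP as control. PINK1 levels and mitochondrial localization were measured by immunofluorescence with mitochondrial, cell and nuclear markers after fixation, read by laser-scanning cytometry.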
# The depositor's hits bear a star; ? = inconclusive; / = not tested or not shown. Most compounds without a hit are left out; they make up all but 0.62% or so of the library. Unless noted, the call rests on the fitted dose curve; in most records, active means well fitted curve in the direction sought with a large enough effect; inconclusive means small, poorly fitted or top-dose-only effect, or another doubt; inactive means no such curve, though single readings can be large; an effect the other way counts as inactive or inconclusive.
no. | molecule | IL2 activator | uPA surface inh | miR-21 FLuc | p53 reactivation | Epigenetic derep | PINK1 expr mod
1 | CCCCC(=O)NC(c1cccc([N+](=O)[O-])c1)c1ccc2cccnc2c1O (stereo not drawn) | -1.0 | 5.01µM* | / | / | / | 1.8%
2 | CC(=O)NC(c1cccc([N+](=O)[O-])c1)c1ccc2cccnc2c1O (stereo not drawn) | 0.1 | -13.0% | 17.6% | -68.7% | / | 3.1%
3 | CCC(=O)NC(c1ccc(OC)cc1)c1c(O)ccc2ccccc12 (stereo not drawn) | -3.9 | 5.62µM* | 21.8% | -3.5% | 1.1% | 7.1%
4 | CCCC(=O)NC(c1ccc(OC)cc1)c1ccc2cccnc2c1O (stereo not drawn) | -6.3 | -0.5% | 28.4% | 7.6% | 3.55µM* | 0.1%
5 | COc1ccccc1C1CN(CCNC(=O)c2ccccc2Cl)Cc2ccccc2O1 (stereo not drawn) | / | / | / | / | / | -0.5%
6 | CCOc1ccc(-c2cc(C(=O)N/N=C/c3ccc(O)c(OC)c3)[nH]n2)cc1 | / | / | / | / | -1.6% | /
7 | Cc1cnc(C)c(-c2cccc3c2OC(CNC(=O)C[C@@H]2C[C@@H](C)NC(=S)N2)C3)n1 (stereo partly drawn) | / | / | / | / | / | 0.2%
8 | CC(C)c1c(C(=O)N(C)Cc2cccc3ncccc23)cnn1-c1nccc(-c2ccco2)n1 | / | / | / | / | / | -0.3%
9 | COc1cccc2ccc(CN3CCC4(CC3)c3ccccc3[C@@H](NC(=O)c3ccccc3)[C@@H]4O)nc12 | / | / | / | / | / | -0.5%
10 | CCOC(=O)N1CCN(C(=O)CCN2C(=O)/C(=C\c3ccc(OC)c(OC)c3)SC2=S)CC1 | 93.4* | / | / | / | / | 31.6µM*
11 | Cc1ccc(/C=C2\SC(=S)N(CCCC(=O)Nc3cc(C)on3)C2=O)cc1 | -0.2 | 2.4% | 14.9% | -12.7% | / | -0.8%
12 | COc1ccc(/C=C2\SC(=S)N(CCCC(=O)Nc3cc(C)on3)C2=O)cc1OC | 17.4 | / | 5.5% | 0.5% | / | 10µM*

# Other compounds.
no. | molecule | IL2 activator | uPA surface inh | miR-21 FLuc | p53 reactivation | Epigenetic derep | PINK1 expr mod
13 | COc1ccc(/C=C2\SC(=S)N(CCCCCC(=O)Nc3cc(C)on3)C2=O)cc1OC | 80.5* | -1.5% | 5.9% | 10.9% | / | 14.1µM*
14 | COc1ccc(/C=C2/SC(=O)N(CC(=O)Nc3cc(C)on3)C2=O)cc1OC | -3.0 | 8.2% | -4.5% | 7.5% | -1.0% | 0.2%
15 | Cc1ccc(/C=N/NC(=O)C2CC(=O)N(c3ccccc3)C2)s1 (stereo not drawn) | 2.1 | -6.6% | -33.0% | 23.5% | -1.6% | 6.9%
16 | O=C(N/N=C/c1ccccc1O)C1CC(=O)N(c2ccc(Cl)cc2)C1 (stereo not drawn) | -4.2 | ? | 24.7% | 31.6µM* | / | 1.3%
17 | CC(C)(CNC(=O)c1cnn(-c2nccc(-c3ccccc3F)n2)c1C1CC1)N1CCOCC1 | / | / | / | / | / | 0.3%
18 | CN1CC=C2C(C#N)=C(N)C(C#N)(C#N)C(Cc3ccccc3)C2C1 (stereo not drawn) | 3.6 | -0.1% | -3.0% | -3.7% | -0.9% | 17.8µM*
19 | CC(C)N1CC=C2C(C#N)=C(N)C(C#N)(C#N)C(c3ccccc3)C2C1 (stereo not drawn) | 2.0 | -4.5% | -5.1% | -1.1% | 0.9% | 7.94µM*
20 | COc1cc(C2C3CN(C)CC=C3C(C#N)=C(N)C2(C#N)C#N)ccc1OC(C)C (stereo not drawn) | -2.6 | -4.7% | -7.8% | 3.2% | -0.9% | 39.8µM*
21 | CN1N=C(C(=O)N2CCOc3ccc(CN4CCCC(C(=O)c5cccnc5)C4)cc3C2)CCC1=O (stereo not drawn) | / | / | / | / | / | -0.8%
22 | COc1ccc(Cc2n[nH]c(=S)n2NC(=O)Nc2ccc(Cl)c(Cl)c2)cc1 | -0.1 | 2.7% | -11.7% | 1.9% | 1.1% | 39.8µM*
23 | COc1cccc(/C(O)=C/c2nc3ccc(C(=O)NCCc4ccc(Cl)cc4)cc3[nH]c2=O)c1 | ? | 5.5% | -17.4% | -9.4% | 7.94µM* | 1.0%
24 | COc1cccc(/C(O)=C/c2nc3ccc(C(=O)NCCc4cccc(C)c4)cc3[nH]c2=O)c1 | 0.6 | -7.1% | -11.3% | 2.5% | 14.1µM* | ?

# 2 entries from above in a different format:
22: COc1ccc(Cc2n[nH]c(=S)n2NC(=O)Nc2ccc(Cl)c(Cl)c2)cc1
  IL2 activator: -0.1	uPA surface inh: 2.7%	miR-21 FLuc: -11.7%	p53 reactivation: 1.9%	Epigenetic derep: 1.1%	PINK1 expr mod: 39.8µM*
21: CN1N=C(C(=O)N2CCOc3ccc(CN4CCCC(C(=O)c5cccnc5)C4)cc3C2)CCC1=O (stereo not drawn)
  IL2 activator: /	uPA surface inh: /	miR-21 FLuc: /	p53 reactivation: /	Epigenetic derep: /	PINK1 expr mod: -0.8%

# Continuation.
no. | molecule | IL2 activator | uPA surface inh | miR-21 FLuc | p53 reactivation | Epigenetic derep | PINK1 expr mod
25 | O=C(NCCc1ccc(Cl)cc1)c1ccc2nc[nH]c2c1 | 0.0 | ? | -33.2% | -7.2% | 1.1% | -0.5%
26 | CCc1nc2cc(C(=O)N3CCCN(C=O)CC3)cc(NC(=O)c3ccccc3OC)c2n1C | / | / | / | / | / | -0.7%
27 | BrC(=C\c1ccccc1)/C=N/N1CCN(c2ccccn2)CC1 | -5.7 | -4.7% | -11.5% | ? | 22.4µM* | -1.6%
28 | Oc1cccc(/C=N/N2CCN(c3ccccn3)CC2)c1 | -0.7 | -1.7% | -28.0% | 10.6% | 0.0% | 0.6%
29 | CCCOC(=O)C(C)n1c(-c2ccccc2)nc2ccccc2c1=O (stereo not drawn) | -1.2 | 7.7% | -4.3% | 7.2% | -1.2% | 8.91µM*
30 | CCCCOC(=O)Cn1c(-c2ccccc2)nc2ccccc2c1=O | 0.5 | 4.9% | -8.4% | -1.1% | 1.1% | 2.0%
31 | Cc1ccc(/C=C/C(=O)c2ccc(O)cc2)cc1 | -0.3 | -9.5% | -25.1% | 11.2µM* | 2.5% | 0.2%
32 | c1ccc(N2CC3CCc4ccccc4C3=N2)cc1 (stereo not drawn) | -2.0 | -4.7% | -53.4% | 44.7µM* | 2.1% | 7.1%
33 | CN1N=C2c3ccccc3CCC2C1c1ccc(F)cc1 (stereo not drawn) | 2.0 | -0.2% | -50.9% | 20.3% | 4.3% | 2.4%
34 | COC(=O)[C@@H]1CCCN1Cc1ccc2c(c1)CN(Cc1ccc3c(c1)CCCN3C)CCO2 | / | / | / | / | / | -0.4%
35 | Cn1c(/C=C/c2ccc(Cl)cc2)c([N+](=O)[O-])c(=O)n(C)c1=O | 0.2 | 5.62µM* | ? | -14.9% | / | -3.8%
36 | CC(=O)c1ccc(F)c(-c2cc(C)cc3c2OC(CNC(=O)c2cnc4ccccn4c2=O)C3)c1 (stereo not drawn) | / | / | / | / | / | 1.2%

# Next compounds follow.
no. | molecule | IL2 activator | uPA surface inh | miR-21 FLuc | p53 reactivation | Epigenetic derep | PINK1 expr mod
37 | O=C1/C(=C/N(C(=O)c2ccco2)c2ccc(Cl)cc2)Sc2ccccc21 | 0.3 | -0.3% | -58.5% | 28.2µM* | -1.9% | 18.7%
38 | O=C1/C(=C/N(C(=O)c2ccco2)c2ccc(Br)cc2)Sc2ccccc21 | 1.1 | -1.1% | -53.1% | ? | -0.9% | 17.4%
39 | O=C(N/N=C/C1CC=CCC1)c1ccc(Cl)cc1O (stereo not drawn) | 0.0 | 4.0% | -14.3% | 31.6µM* | -1.0% | -0.9%
40 | O=C(N/N=C/C1CC=CCC1)c1ccccc1O (stereo not drawn) | 0.2 | -6.0% | -20.7% | 13.1% | 1.6% | 4.6%
41 | NC1=NC(=O)/C(=C/c2c(OS(=O)(=O)c3ccc(Cl)cc3)ccc3ccccc23)S1 | 0.9 | 1.4% | -4.5% | -1.4% | -1.9% | 12.6µM*
42 | NC1=NC(=O)/C(=C/c2ccccc2OS(=O)(=O)c2ccccc2)S1 | 0.2 | 1.8% | -0.2% | -6.0% | -2.2% | ?

# 4 entries drawn at random from the list so far, as already listed:
no. | molecule | IL2 activator | uPA surface inh | miR-21 FLuc | p53 reactivation | Epigenetic derep | PINK1 expr mod
40 | O=C(N/N=C/C1CC=CCC1)c1ccccc1O (stereo not drawn) | 0.2 | -6.0% | -20.7% | 13.1% | 1.6% | 4.6%
41 | NC1=NC(=O)/C(=C/c2c(OS(=O)(=O)c3ccc(Cl)cc3)ccc3ccccc23)S1 | 0.9 | 1.4% | -4.5% | -1.4% | -1.9% | 12.6µM*
38 | O=C1/C(=C/N(C(=O)c2ccco2)c2ccc(Br)cc2)Sc2ccccc21 | 1.1 | -1.1% | -53.1% | ? | -0.9% | 17.4%
42 | NC1=NC(=O)/C(=C/c2ccccc2OS(=O)(=O)c2ccccc2)S1 | 0.2 | 1.8% | -0.2% | -6.0% | -2.2% | ?

# Screening data deposited in PubChem by National Center for Advancing Translational Sciences (NCATS).
